Values of other authors, collected in patent US10376598B2, “Targeted therapeutics” (Madrigal Pharmaceuticals, Inc., priority 2013, dated 2019).

Conditions: in vivo; read-out: unbound plasma IC50 for saturation of BBB efflux; cited from earlier work

Structure (SMILES): CCN1CCN(Cc2ccc(Nc3ncc(F)c(-c4cc(F)c5nc(C)n(C(C)C)c5c4)n3)nc2)CC1.CS(=O)(=O)O [LY2835219, 2-Pyrimidinamine, N-[5-[(4-ethyl-1-piperazinyl)methyl]-2-pyridinyl]-5-fluoro-4-[4-fluoro-2-methyl-1-(1-methylethyl)-1H-benzimidazol-6-yl]-, methanesulfonate (1:1)]
- IC50: ~95 nM
